Results reported in ChEMBL document CHEMBL3593206, “SAR Studies of Exosite-Binding Substrate-Selective Inhibitors of A Disintegrin And Metalloprotease 17 (ADAM17) and Application as Selective in Vitro Probes” (J Med Chem, 2015).

How the values were obtained:
ADAM17 (Homo sapiens) = experiment: Inhibition of ADAM17 in human SW480 cells assessed as inhibition of PMA-stimulated wild type PTK7 shedding at 25 to 100 uM after 16 hrs by Western blot analysis
[1] = target: Matrix metalloproteinase-14 (Homo sapiens, UniProt P50281); experiment: Inhibition of MMP14 (unknown origin) using Mca-KLPGL-Dnp-AR as substrate at 100 uM preincubated for 30 mins followed by substrate addition measured after 1 hr by fluorescence assay relative to control
Summary of the method: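 Inhibitor as 10-point 1:3 dilutions from 300 μM, 30 min at RT. Substrate added from a 30 μM 3× solution. Single fluorescence read (ex 324/em 393 nm) after 1 h at RT.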

CCC[C@H]1CNC(=O)C(=O)N1C[C@@H]1CCCN1C[C@@H](CC1CCCCC1)N1C[C@H](Cc2ccccc2)N(CCc2ccccc2)C(=O)C1=O
inhibition (ADAM17 (Homo sapiens)): 0%
inhibition [1]: 0%
